The record followed here is US20250346599A1, “TRICYCLIC PHTHALAZINONE PARP INHIBITORS AND METHODS OF USE” (Valo Health, Inc., priority 2022, published 2025).

By UniProt entry, the sequences of proteins in these tests, tags left out.
UniProt P09874, whole entry: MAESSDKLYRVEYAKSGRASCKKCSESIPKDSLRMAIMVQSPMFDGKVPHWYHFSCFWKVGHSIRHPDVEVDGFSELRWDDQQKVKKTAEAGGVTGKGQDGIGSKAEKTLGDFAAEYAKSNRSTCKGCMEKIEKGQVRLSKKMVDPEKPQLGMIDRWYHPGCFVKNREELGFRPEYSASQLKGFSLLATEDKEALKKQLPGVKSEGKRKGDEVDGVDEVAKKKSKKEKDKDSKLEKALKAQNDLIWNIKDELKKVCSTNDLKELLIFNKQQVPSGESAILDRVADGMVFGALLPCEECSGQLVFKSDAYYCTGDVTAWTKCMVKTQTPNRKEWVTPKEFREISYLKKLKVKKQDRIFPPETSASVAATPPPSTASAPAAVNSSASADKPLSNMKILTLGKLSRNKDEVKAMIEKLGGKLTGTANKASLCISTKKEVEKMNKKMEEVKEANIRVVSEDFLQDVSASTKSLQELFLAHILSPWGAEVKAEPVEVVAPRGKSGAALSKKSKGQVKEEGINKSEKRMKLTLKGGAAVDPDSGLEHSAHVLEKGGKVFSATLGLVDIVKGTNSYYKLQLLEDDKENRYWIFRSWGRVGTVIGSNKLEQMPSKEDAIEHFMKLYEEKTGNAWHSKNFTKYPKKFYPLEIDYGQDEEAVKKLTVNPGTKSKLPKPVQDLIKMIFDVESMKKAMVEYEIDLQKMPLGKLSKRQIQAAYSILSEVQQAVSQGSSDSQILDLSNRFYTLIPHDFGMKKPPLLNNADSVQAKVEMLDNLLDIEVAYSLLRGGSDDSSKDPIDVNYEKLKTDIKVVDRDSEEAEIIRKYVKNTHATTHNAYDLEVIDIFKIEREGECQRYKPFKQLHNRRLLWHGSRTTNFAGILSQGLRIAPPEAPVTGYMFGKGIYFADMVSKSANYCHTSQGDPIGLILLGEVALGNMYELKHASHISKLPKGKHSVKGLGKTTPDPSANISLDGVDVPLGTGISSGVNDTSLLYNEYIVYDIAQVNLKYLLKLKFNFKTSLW
UniProt P08183, whole entry: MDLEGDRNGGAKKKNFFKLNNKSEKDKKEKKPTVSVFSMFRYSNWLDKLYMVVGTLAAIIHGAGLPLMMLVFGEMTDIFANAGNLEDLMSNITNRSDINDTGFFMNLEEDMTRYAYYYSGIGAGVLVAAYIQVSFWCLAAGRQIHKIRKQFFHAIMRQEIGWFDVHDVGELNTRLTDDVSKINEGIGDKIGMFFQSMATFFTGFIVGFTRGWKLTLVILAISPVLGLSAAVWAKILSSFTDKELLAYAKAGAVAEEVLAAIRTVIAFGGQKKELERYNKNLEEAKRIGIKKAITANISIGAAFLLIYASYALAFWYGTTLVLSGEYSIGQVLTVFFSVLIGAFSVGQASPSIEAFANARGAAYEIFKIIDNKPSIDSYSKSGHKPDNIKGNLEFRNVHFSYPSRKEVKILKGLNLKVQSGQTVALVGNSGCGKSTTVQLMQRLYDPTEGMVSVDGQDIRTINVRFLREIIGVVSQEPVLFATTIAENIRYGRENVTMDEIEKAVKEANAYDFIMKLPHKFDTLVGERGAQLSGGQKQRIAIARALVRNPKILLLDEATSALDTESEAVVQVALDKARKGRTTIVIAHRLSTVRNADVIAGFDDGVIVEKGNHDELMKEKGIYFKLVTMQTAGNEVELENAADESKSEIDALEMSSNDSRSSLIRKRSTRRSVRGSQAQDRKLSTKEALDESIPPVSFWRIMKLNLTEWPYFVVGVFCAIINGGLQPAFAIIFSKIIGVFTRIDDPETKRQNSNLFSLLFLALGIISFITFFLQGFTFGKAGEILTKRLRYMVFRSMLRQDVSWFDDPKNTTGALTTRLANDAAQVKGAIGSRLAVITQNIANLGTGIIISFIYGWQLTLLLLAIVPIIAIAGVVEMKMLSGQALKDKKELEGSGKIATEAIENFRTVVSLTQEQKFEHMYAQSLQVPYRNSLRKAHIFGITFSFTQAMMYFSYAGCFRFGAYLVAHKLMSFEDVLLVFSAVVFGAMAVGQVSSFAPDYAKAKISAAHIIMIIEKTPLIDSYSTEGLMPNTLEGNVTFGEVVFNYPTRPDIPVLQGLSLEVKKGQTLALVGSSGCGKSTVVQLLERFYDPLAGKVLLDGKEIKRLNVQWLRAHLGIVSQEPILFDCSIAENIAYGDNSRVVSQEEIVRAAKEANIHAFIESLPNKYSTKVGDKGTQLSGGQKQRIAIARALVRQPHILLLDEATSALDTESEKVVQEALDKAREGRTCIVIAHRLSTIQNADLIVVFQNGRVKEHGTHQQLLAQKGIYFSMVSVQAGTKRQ

Data set [1] concerns the target PARP1 enzyme (Homo sapiens (Human), UniProt P09874). As to the kind of experiment: PARP Mass Spectroscopy Assay (PARP1 enzymatic assay, nicotinamide detection). The settings on record: read-out: PARP1 IC50; 5 nM PARP1, 5 uM β-NAD, 60 min at RT, NAM by mass spectrometry. The source says: Materials and Reagents: The PARP1 enzyme was purchased from BPS Bioscience (cat #80501). Tris-HCl, pH 8.0 was purchased from Corning (cat #46-031-CM). Magnesium chloride was purchased from Thermo Fisher Scientific (previously Honeywell Fluka, cat #63020-1L). All other assay components, activated DNA (cat #D4522), core histones (cat #SRP6590), β-Nicotinamide adenine dinucleotide (β-NAD—cat #N8285), 3ABA PARP1 small molecule inhibitor (from the PARP1 Enzyme Activity Assay kit, cat #17-10149), Sodium Chloride (NaCl, cat #56546-1L), Triton X-100 (cat #93443), Dithiothreitol (DTT, cat #43816-250 ML) were all purchased from Millipore Sigma.
Assay Buffer: The assay buffer includes the following reagents: 50 mM Tris-HCl pH 8.0, 50 mM NaCl, 10 mM, MgCl2, 0.01% Triton X-100, and 1 mM DTT.
PARP1 enzymatic assays were performed in 384-well plates in a total volume of 20 μL in the assay buffer. For concentration response curves, compounds were serially diluted 3-fold from 2 mM highest concentration […] to generate a 10-point curve, and 125 nL was transferred to the assay plate using the Echo acoustic dispenser for a final concentration range of 26.6 μM to […] in 10 μL reaction. Five microliters of 10 nM PARP1 enzyme and 100 nM core histones (2×) mix were added to the assay plates and pre-incubated for 30 mins at room temperature (RT). The reaction was initiated by the addition of a 5 μL of 10 uM β-NAD plus 0.02 mg/mL activated DNA (2×) mix. The reaction is incubated for 60 min at RT. The final concentration of the PARP1 enzyme and substrate concentrations were 5 nM and 5 uM, respectively. The positive control (high signal) and negative control (low signal) wells had 125 nL of DMSO in place of compounds. After the incubation is complete, the reaction is stopped by the addition of 10 μL of 10 uM of the 3ABA PARP1 inhibitor, incubated for 5 min at RT, and placed in the −80 C freezer for shipment to the Valo Health site in Branford Connecticut where mass spectrometry will be used to directly detect quantities of nicotinamide (NAM).
The percent inhibition of enzyme activity was calculated according to the following equation: […]
The values of Ssample, Shigh, and Slow in the equation refer to the NAM concentration detected in the assay wells, high control wells, and low control wells, respectively. To determine inhibitor IC50 values, % inhibition of the CRCs (concentration response curves) was fitted to the standard single-site four-parameter logistic equation.

The target in data set [2] is human MDR1 (P-glycoprotein; P-gp) (Homo sapiens (Human), UniProt P08183). As to the kind of experiment: bi-directional MDCK-MDR1 permeability assay. The settings on record: for MDCK-MDR1 Papp A→B (10^−6 cm/s): apical to basolateral direction; for MDCK-MDR1 ER: efflux ratio B→A/A→B. The source says: The bi-directional assay containing a Mandin Darby canine kidney (MDCK) cell line transfected with human MDR1 gene (P-glycoprotein; P-gp) designed to overexpress the MDR1 efflux transporter, a major efflux transporter at the blood brain barrier (BBB), uses an established method that measures the rate of flux of a compound across polarized cell monolayers. As well appreciated in the art, the data generated from the MDCK-MDR1 permeability assay may be used to predict in vivo absorption of drugs. The bi-directional MDCK-MDR1 permeability assay can identify and quantify levels of active efflux. Screening compounds in both the apical to basolateral direction (A→B) and basolateral to apical direction (B→A) across the cell monolayer provides a ratio of B→A/A→B (efflux ratio; “ER”). Unlike the Caco-2 assay, the MDCK-MDR1 assay is not subject to potential efflux interference by breast cancer resistance protein (BCRP). […] The data may further be used to predict blood brain barrier (BBB) permeability via calculation from the data of log(permeability-surface area product) (“log PS”), well-understood to be predictive of the in vivo log([brain concentration]/[plasma concentration]).

For `COCCN1CC[C@H]([C@H]2Nc3cc(F)cc4c(=O)[nH]nc(c34)[C@@H]2c2ccc(F)cc2F)C1`, the IC50 (in general, the concentration needed to halve the response being measured) in data set [1] worked out at 0.051 µM.
As for `COCCN1CC[C@H]([C@H]2Nc3cc(F)cc4c(=O)[nH]nc(c34)[C@@H]2c2ccccc2Cl)C1`, in data set [2], the “MDCK-MDR1 Papp A→B (10^−6 cm/s)” value is listed as 0.751 10^−6 cm/s and the MDCK-MDR1 ER amounted to 36.3. Further, in data set [1], the IC50 is 0.101 µM.
As for `C[C@@H]1Nc2cc(F)cc3c(=O)[nH]nc(c23)[C@H]1c1ccc(Cl)cc1F`, in data set [2], the “MDCK-MDR1 Papp A→B (10^−6 cm/s)” value is listed as 13.1 10^−6 cm/s and the MDCK-MDR1 ER came to 0.541. Further, the IC50 in data set [1] worked out at 0.027 µM.
For the compound `COCCN1CC[C@@H]([C@@H]2Nc3cc(F)cc4c(=O)[nH]nc(c34)[C@H]2c2ccccc2Cl)C1`, the concentration for half-maximal inhibition (IC50) in data set [1] stood at 3.08 µM.
On to `COCCN1CC[C@@H]([C@@H]2Nc3cc(F)cc4c(=O)[nH]nc(c34)[C@H]2c2ccc(F)cc2F)C1`, for which the IC50 in data set [1] came to 1.24 µM.
Same read-out and setting: as for `COCCN1CC[C@H]([C@@H]2Nc3cc(F)cc4c(=O)[nH]nc(c34)[C@H]2c2ccccc2Cl)C1`, the figure is 0.085 µM.
For `COCCN1CC[C@H]([C@@H]2Nc3cc(F)cc4c(=O)[nH]nc(c34)[C@H]2c2ccc(F)cc2F)C1`, in data set [2], the “MDCK-MDR1 Papp A→B (10^−6 cm/s)” value is recorded as 4.46 10^−6 cm/s and the MDCK-MDR1 ER was 7.76. Also, the concentration for half-maximal inhibition (IC50) in data set [1] is 0.12 µM.
With `COCCN1CC[C@@H]([C@H]2Nc3cc(F)cc4c(=O)[nH]nc(c34)[C@@H]2c2ccccc2Cl)C1`, in data set [1], the concentration for half-maximal inhibition (IC50) came to 0.287 µM.
As for `CC(C)(C)C[C@@H]1Nc2cc(F)cc3c(=O)[nH]nc(c23)[C@H]1c1c(F)cc(F)cc1F`, the IC50 in data set [1] was determined as 0.049 µM.
With `C[C@@H]1Nc2cc(F)cc3c(=O)[nH]nc(c23)[C@H]1c1ccc(C#N)c(F)c1`, in data set [1], the concentration for half-maximal inhibition (IC50) was found to be 0.009 µM.
Consider `COCCN1CC[C@@H]([C@H]2Nc3cc(F)cc4c(=O)[nH]nc(c34)[C@@H]2c2ccc(F)cc2F)C1`, for which, in data set [2], the “MDCK-MDR1 Papp A→B (10^−6 cm/s)” value is recorded as 0.866 10^−6 cm/s and the MDCK-MDR1 ER is 33.1. In addition, the 50% inhibitory concentration (IC50) in data set [1] was 0.08 µM.
For the compound `O=c1[nH]nc2c3c(cc(F)cc13)N[C@H](c1c(F)cc(F)cc1F)[C@H]2C1CCNCC1`, the 50% inhibitory concentration (IC50) in data set [1] was 0.098 µM.
